According to ChEMBL document CHEMBL4152336, “Optimization of the first small-molecule relaxin/insulin-like family peptide receptor (RXFP1) agonists: Activation results in an antifibrotic gene expression profile” (Eur J Med Chem, 2018):

System: HEK293
Experiment: Cytotoxicity against HEK293 cells assessed as reduction in cell viability by measuring ATP level by ATPlite assay
Assay type: cell-based
Conditions: Homo sapiens

## CCCCOc1ccccc1C(=O)Nc1ccccc1C(=O)Nc1cccc(S(=O)(=O)C(F)(F)F)c1
  EC50: 59.3 µM
